In ChEMBL document CHEMBL1142685, “Novel anticholinesterases based on the molecular skeletons of furobenzofuran and methanobenzodioxepine” (J Med Chem, 2005) one finds IC50 data, which are given here for one compound.

Amino acid sequences for entries named in this document (tags omitted). A change or cut given only in a name is not applied to a line headed by its entry.
UniProt P22303: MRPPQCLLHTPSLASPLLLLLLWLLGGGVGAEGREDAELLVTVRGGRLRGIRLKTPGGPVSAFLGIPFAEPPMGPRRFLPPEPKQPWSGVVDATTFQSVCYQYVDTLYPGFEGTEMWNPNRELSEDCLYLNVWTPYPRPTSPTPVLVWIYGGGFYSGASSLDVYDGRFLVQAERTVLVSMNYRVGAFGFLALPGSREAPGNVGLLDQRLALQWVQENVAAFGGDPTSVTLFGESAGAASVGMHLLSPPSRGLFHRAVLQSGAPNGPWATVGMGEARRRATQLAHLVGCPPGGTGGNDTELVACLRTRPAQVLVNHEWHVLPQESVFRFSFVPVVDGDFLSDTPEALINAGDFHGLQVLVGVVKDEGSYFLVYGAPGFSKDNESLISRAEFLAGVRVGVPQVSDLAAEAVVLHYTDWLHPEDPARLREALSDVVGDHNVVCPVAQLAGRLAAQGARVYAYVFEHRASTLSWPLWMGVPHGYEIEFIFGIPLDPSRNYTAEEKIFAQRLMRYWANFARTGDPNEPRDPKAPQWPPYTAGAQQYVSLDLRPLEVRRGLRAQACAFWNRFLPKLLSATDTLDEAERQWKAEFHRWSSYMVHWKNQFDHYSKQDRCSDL

Broadly, the IC50 is the concentration that gives 50% inhibition. A lower IC50 goes with greater potency.

This test concerns the target Acetylcholinesterase (Homo sapiens, UniProt P22303).

As for `CCNC(=O)Oc1ccc2c(c1)C1(C)COC(C1)O2` (stereo unspecified), 0.83 µM corresponded to half-maximal inhibition (IC50).
